From PubChem BioAssay AID827 (SRMLSC, 2007) come the findings set out here.

This is a selection; strong and weak results do not stand in their true shares. Active and inactive are the calls of the source.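 Rule for the calls: active = viability at or below a set limit, 4 SD under the median of all tested compounds (cut at about 3.7% in these data); inactive = the rest.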

The nature of the experiment: viability loss in PTEN-deleted colon tumor cells – cell-based, HCT116, CellTiter-Glo, primary screen (AID 827).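 Note: PTEN knockout HCT116 line with beta catenin targeted HCT116 as companion control.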 The note with it: HCT116 PTEN-null viability, 60 h, at 10 µM, stronger effect = lower value.
For the compound `CCOC(=O)c1ccc(NP(C)(=O)Oc2ccc(Cl)cc2)cc1` (stereo not drawn), the viability is inactive: 103%.
For `CP(=O)(OC12CC3CC(CC(C3)C1)C2)OC12CC3CC(CC(C3)C1)C2`, the viability was inactive: 80.7%.
As to `CC(C)(C)c1ccc(OP(C)(=O)O)cc1`, the viability was inactive: 87.9%.
Turning to `CP(=O)(Nc1ccc(Cl)cc1)Oc1ccc(F)cc1` (stereo not drawn), the viability was inactive: 89.4%.
Consider `CP(=O)(Oc1ccccc1)N1CCOC1=O` (stereo not drawn), for which the viability was inactive: 89.5%.
For the compound `COc1ccc(OP(C)(=O)Nc2ccc(Br)cc2)cc1` (stereo not drawn), the viability is inactive: 89.4%.
Under `CCN(CC)CC(O)COC(=O)C(O)(c1ccccc1)C1CCCCC1` (stereo not drawn) stands inactive: 90.8%; under `COc1ccccc1OP(C)(=O)Nc1ccc(C)cc1C` (stereo not drawn), inactive: 93.5%; under `CP(=O)(Nc1ccccn1)Oc1ccccc1` (stereo not drawn), inactive: 111%.
Under `CCc1ccc(OP(C)(=O)O)cc1` stands inactive: 93.5%; under `Cc1c(NP(C)(=O)Oc2ccc(C(C)C)cc2)c(=O)n(-c2ccccc2)n1C` (stereo not drawn), inactive: 96%.
On to `COc1ccc(OP(C)(=O)Nc2ccccn2)cc1` (stereo not drawn), for which the viability is inactive: 103%.
In the case of `CN(C)CCOC(=O)C(O)(c1ccccc1)C1CCCC1` (stereo not drawn), the viability is inactive: 102%.
`COc1ccccc1OP(C)(=O)Nc1ccc(C)c(C)c1` (stereo not drawn): the viability was inactive: 93.3%.
Turning to `COc1ccc(OP(C)(=O)Nc2ccccc2Br)cc1` (stereo not drawn), the viability is inactive: 97.5%.
For `CP(=O)(Nc1ccccc1)Oc1ccc(F)cc1` (stereo not drawn) the value was inactive: 89.8%.
In the case of `CCN(CC)CCCOC(=O)C(O)(c1ccccc1)C1CCCCC1` (stereo not drawn), the viability is inactive: 98.1%.
As for `CCOC(=O)c1ccc(NP(C)(=O)Oc2ccc(F)cc2)cc1` (stereo not drawn), the viability was inactive: 89.6%.
Take `O=C(OCCN1CCN(CCOCc2ccccc2)CC1)C(O)(c1ccccc1)c1ccccc1`: the viability is inactive: 95.1%.
With `CP(=O)(Nc1ccccc1F)Oc1ccccc1` (stereo not drawn), the viability is inactive: 96.2%.
Take `CC(C)c1ccc(OP(C)(=O)Nc2ccc(SC(F)(F)F)cc2)cc1` (stereo not drawn): the viability is inactive: 68.7%.
For `Cc1ccccc1NP(C)(=O)Nc1ccccc1C` the value was inactive: 87%; for `CP(=O)(Nc1ccc2c(c1)OCCO2)Oc1ccccc1` (stereo not drawn), inactive: 109%; for `CCOP(C)(=S)SCC(=O)NC(C)(CC)C(=O)O` (stereo not drawn), inactive: 91.3%.
On to `CN(C)CCOC(=O)C(O)(c1ccccc1)C1CCCCC1` (stereo not drawn), for which the viability was inactive: 102%.
Turning to `COc1ccc(OP(C)(=O)Nc2cccc(Br)c2)cc1` (stereo not drawn), the viability was inactive: 96.2%.
For `CP(=O)(Nc1ccc(SC(F)(F)F)cc1)Oc1ccccc1` (stereo not drawn) the value was inactive: 78%.
`CN1CCCCC1COC(=O)C1(O)c2ccccc2CCc2ccccc21` (stereo not drawn): the viability was inactive: 78.8%.
In the case of `COc1ccccc1OP(C)(=O)Nc1c(C)cccc1C` (stereo not drawn), the viability is inactive: 101%.
As for `Cc1nc2ccc3ccccc3c2s1.O=[N+]([O-])c1cc([N+](=O)[O-])c(O)c([N+](=O)[O-])c1`, the viability is inactive: 99.3%.
As to `Cc1ccc(C)c(NP(C)(=O)Oc2ccccc2)c1` (stereo not drawn), the viability was inactive: 87.3%.
For `Cc1cc(C)cc(OP(C)(=O)Nc2ccccn2)c1` (stereo not drawn) the value was inactive: 94%; for `CCOC(=O)c1ccc(NP(C)(=O)Oc2cc(C)cc(C)c2)cc1` (stereo not drawn), inactive: 58.6%; for `Cc1cc(C)cc(OP(C)(=O)Nc2ccc(C)cc2C)c1` (stereo not drawn), inactive: 84.8%.
For the compound `CC1=NCCc2c1[nH]c1ccccc21.O=[N+]([O-])c1cc([N+](=O)[O-])c(O)c([N+](=O)[O-])c1`, the viability was inactive: 87.5%.
On to `COc1ccc(OP(C)(=O)Nc2cccc(F)c2)cc1` (stereo not drawn), for which the viability is inactive: 97.7%.
As for `Cc1ccc(NP(C)(=O)Oc2ccccc2)c(C)c1` (stereo not drawn), the viability was inactive: 97.2%.
Consider `COc1ccccc1OP(C)(=O)Nc1ccc(C)cc1` (stereo not drawn), for which the viability was inactive: 89.5%.
Consider `CCOC(=O)c1ccc(NP(C)(=O)Oc2ccccc2)cc1` (stereo not drawn), for which the viability was inactive: 92.6%.
Take `CC(C)(C)c1ccc(OP(C)(=O)Nc2ccc(SC(F)(F)F)cc2)cc1` (stereo not drawn): the viability was inactive: 78.5%.
For the compound `CP(=O)(Nc1ccccn1)Oc1ccc(Cl)cc1` (stereo not drawn), the viability is inactive: 101%.
Consider `CCOC(=O)c1ccc(NP(C)(=O)Oc2ccc(OC)cc2)cc1` (stereo not drawn), for which the viability is inactive: 95.7%.
Take `CCOP(C)(=S)SCC(=O)NC(C)C(=O)O` (stereo not drawn): the viability was inactive: 92.5%.
Consider `Cc1cc(C)cc(OP(C)(=O)Nc2ccc(SC(F)(F)F)cc2)c1` (stereo not drawn), for which the viability was inactive: 81.5%.
For `CP(=O)(NC(=O)Nc1ccccc1)Oc1ccccc1` (stereo not drawn) the value was inactive: 91.6%.
In the case of `Cc1cccc(C)c1OP(C)(=O)Nc1ccc(SC(F)(F)F)cc1` (stereo not drawn), the viability is inactive: 37.6%.
On to `CP(=O)(Nc1ccccc1Br)Oc1ccccc1` (stereo not drawn), for which the viability was inactive: 96.9%.
As for `CP(=S)(Nn1cnnc1)Oc1ccccc1` (stereo not drawn), the viability was inactive: 112%.
